Experimental data reported in publication PMC12155096 (International Journal of Molecular Sciences, 2025).

The chains behind the UniProt entries cited, without tags or fusion partners.
UniProt P08684, whole entry: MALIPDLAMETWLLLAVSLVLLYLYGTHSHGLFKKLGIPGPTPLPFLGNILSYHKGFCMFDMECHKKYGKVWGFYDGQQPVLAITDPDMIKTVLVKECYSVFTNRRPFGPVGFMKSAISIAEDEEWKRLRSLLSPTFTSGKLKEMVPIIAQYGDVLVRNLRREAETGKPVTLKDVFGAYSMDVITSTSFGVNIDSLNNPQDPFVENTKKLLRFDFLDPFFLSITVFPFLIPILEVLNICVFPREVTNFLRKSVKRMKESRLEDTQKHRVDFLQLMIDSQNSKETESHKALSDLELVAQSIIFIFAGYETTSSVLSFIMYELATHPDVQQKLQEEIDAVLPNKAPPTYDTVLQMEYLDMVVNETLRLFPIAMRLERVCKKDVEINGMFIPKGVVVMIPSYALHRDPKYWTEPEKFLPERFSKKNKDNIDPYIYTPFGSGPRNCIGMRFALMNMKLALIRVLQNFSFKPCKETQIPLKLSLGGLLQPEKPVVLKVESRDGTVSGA
UniProt P10635, whole entry: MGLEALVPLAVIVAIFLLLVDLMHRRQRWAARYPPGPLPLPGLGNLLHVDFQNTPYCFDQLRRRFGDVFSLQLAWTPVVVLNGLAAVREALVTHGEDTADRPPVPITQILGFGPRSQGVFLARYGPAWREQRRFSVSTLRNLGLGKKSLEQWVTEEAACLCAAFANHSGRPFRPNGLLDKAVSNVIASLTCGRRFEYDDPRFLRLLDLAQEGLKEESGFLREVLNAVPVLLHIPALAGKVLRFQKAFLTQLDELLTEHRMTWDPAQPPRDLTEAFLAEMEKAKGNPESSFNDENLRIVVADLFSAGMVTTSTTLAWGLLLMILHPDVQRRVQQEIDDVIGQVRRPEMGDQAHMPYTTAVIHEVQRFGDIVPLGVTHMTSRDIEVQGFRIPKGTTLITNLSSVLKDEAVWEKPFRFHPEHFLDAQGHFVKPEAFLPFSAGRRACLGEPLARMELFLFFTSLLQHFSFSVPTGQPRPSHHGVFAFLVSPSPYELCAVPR
UniProt P33261, whole entry: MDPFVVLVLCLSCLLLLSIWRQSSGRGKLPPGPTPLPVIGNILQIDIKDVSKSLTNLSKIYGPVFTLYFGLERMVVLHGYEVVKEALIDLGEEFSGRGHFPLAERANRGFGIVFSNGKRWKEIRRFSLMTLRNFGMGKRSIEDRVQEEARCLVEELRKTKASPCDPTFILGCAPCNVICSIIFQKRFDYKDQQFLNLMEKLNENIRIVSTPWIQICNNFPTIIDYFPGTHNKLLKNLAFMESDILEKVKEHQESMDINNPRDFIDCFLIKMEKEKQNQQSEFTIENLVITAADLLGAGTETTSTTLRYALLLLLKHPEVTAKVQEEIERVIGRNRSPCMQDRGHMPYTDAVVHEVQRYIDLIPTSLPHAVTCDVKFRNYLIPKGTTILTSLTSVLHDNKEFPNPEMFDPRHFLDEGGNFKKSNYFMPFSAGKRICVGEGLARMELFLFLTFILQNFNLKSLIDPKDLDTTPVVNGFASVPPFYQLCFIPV
UniProt P11712, whole entry: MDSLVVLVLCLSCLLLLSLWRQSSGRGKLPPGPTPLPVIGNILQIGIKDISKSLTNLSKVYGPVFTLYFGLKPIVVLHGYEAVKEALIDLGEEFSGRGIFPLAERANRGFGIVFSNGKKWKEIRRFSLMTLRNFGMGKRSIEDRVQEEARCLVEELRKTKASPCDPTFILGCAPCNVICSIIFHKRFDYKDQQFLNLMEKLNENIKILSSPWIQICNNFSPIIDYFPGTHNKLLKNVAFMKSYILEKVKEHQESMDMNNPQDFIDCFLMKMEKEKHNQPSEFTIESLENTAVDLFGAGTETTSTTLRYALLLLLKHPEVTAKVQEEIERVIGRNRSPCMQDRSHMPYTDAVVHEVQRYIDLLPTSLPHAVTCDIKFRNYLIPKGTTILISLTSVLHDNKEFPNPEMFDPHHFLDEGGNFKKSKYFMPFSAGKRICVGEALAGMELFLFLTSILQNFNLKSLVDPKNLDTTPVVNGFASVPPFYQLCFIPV
UniProt P05177, whole entry: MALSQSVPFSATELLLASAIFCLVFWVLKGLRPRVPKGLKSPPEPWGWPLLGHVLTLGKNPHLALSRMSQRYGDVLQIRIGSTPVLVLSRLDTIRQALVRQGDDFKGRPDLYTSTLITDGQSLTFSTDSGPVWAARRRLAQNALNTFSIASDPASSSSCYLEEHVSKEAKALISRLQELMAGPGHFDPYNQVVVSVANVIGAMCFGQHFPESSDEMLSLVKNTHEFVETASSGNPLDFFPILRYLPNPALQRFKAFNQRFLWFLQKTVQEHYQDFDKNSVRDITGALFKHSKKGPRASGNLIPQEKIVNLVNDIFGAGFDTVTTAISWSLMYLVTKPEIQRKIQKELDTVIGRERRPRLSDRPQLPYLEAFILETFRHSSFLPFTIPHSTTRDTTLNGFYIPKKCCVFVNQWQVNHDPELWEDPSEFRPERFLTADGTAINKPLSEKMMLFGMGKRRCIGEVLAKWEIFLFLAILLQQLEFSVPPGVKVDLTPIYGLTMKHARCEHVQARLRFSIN

Legend:
CYP3A4 = CYP3A4 (Homo sapiens, UniProt P08684)
human CYP2D6 = human CYP2D6 (Homo sapiens, UniProt P10635)
human CYP2C19 = human CYP2C19 (Homo sapiens, UniProt P33261)
human CYP2C9 = human CYP2C9 (Homo sapiens, UniProt P11712)
human CYP1A2 = human CYP1A2 (Homo sapiens, UniProt P05177)

| Substance | IC50 (CYP3A4; read-out: CYP3A4 IC50) [µM] | IC50 (human CYP2D6; read-out: CYP2D6 IC50) [µM] | CYP2C19 Efficacy (in parenthesis) (human CYP2C19) | IC50 (human CYP2C19) [µM] | CYP3A4 Efficacy (in parenthesis) (CYP3A4) | CYP2C9 Efficacy (in parenthesis) (human CYP2C9) | IC50 (human CYP2C9) [µM] | CYP2D6 Efficacy (in parenthesis) (human CYP2D6; human) | IC50 (human CYP2D6; human) [µM] | CYP1A2 Efficacy (in parenthesis) (human CYP1A2) | IC50 (human CYP1A2) [µM] |
| --- | --- | --- | --- | --- | --- | --- | --- | --- | --- | --- | --- |
| Kadethrin | 2.45 | 34.6 |  |  |  |  |  |  |  |  |  |
| Diniconazole |  |  | 0.04 ± 0.01 (-120 ± 17) % | 0.04 | 0.26 ± 0.04 (-85 ± 1) % | 5.25 ± 0.72 (-104 ± 5) % | 5.25 | 38.89 ± 8.14 (-106 ± 9) % | 38.9 | 39.92 ± 2.7 (-100 ± 7) % | 39.9 |

Read-outs that look alike come from different tables or passages of the source.
